# Source: PubChem BioAssay
# uPA generation – inhibitors of cell surface uPA generation. cell surface uPA generation assay, qHTS. Potency, µM (highest dose often 38.3 µM), most hits filed as inhibitors. actives 0.31% (n = 330,000); active = well fitted inhibition curve with a large enough effect; inconclusive = small, poorly fitted or top-dose-only effect; inactive = no such curve, though single readings can be large or run the other way; tested in mouse RAW 264.7 cells; also: nearly all actives have a fitted effect of over 55% in size
# TDP1 block – inhibitors of human tyrosyl-DNA phosphodiesterase TDP1; Q9NUW8; recombinant TDP1, AlphaScreen DNA substrate cleavage; AID 485290; Potency, µM (highest dose often 130 µM), actives largely listed as inhibitors; actives 0.28% (n = 350,000); also: nearly all actives have a fitted effect of over 40% in size
#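 Steps: enzyme plus compound, 15 min RT; add biotin/phosphotyrosine-FITC oligonucleotide (15 nM final), react 5 min; add donor/acceptor beads (10 ug/ml final), 10 min; read AlphaScreen. Tdp1 at 1 nM final.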
# miR-21 FLuc – miR-21 reporter, rising signal; Potency, µM (titrated, usually from 38.3 µM); AID 2288; 340,000 tested, under 10 active; HeLa miR-21 FLuc reporter, luciferase, 48 h; active = well fitted rising curve with a large enough effect; inconclusive = small, poorly fitted or top-dose-only effect; inactive = no such curve, though single readings can be large or run the other way;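 note: miR-21 action dims this reporter so a rising signal means less miR-21 action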
#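 HeLa miR-21-FLuc reporter line, endogenous miR-21; 2000 cells/well in DMEM/10% FBS; compound titration up to ~40uM final, 48 h, 37 degree Celsius; luciferase detection reagent, 15 min lysis, CCD luminescence.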
# DT40 TDP1 no CPT – qHTS for Inhibitors of human tyrosyl-DNA phosphodiesterase 1 (TDP1): qHTS in cells in absence of CPT; DT40 Tdp1-/- hTDP1 cells, no CPT, ATP luminescence, 48 h; Potency, µM (top dose mostly 46.2 µM), usual class: inhibitors; actives 15% (n = 420,000); also: nearly all actives have a fitted effect of over 55% in size
#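 Readout: luminescence from CellTiter-Glo after 30 min in the dark at RT. Cells: DT40 Tdp1-/- with stable hTDP1, 400/well. Exposure: compounds alone, ≥48 hr, 37 °C.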
# DT40 TDP1 CPT – growth inhibition of DT40 Tdp1-/-;hTDP1 cells with camptothecin (screen for TDP1 inhibitors); chicken DT40 Tdp1-/-;hTDP1 cells + 20 nM CPT, ATP luminescence, 48 h; Potency, µM (doses to about 46.2 µM), usual class: inhibitors; actives 12% (n = 420,000); also: nearly all actives have a fitted effect of over 55% in size
#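 Chicken DT40 Tdp1-/- cells stably complemented with human TDP1 were seeded at 400 cells/well in medium containing 20 nM camptothecin, exposed to pin-transferred compounds, and grown at 37 °C for at least 48 hr. Viability was read as ATP luminescence.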
# Numbers stand for hits; – = inactive; ? = inconclusive; · = not tested or not shown. The list is not random: actives were taken first. Their share in the collection is about 16%. Unless noted, calls follow the shape of the dose curve; as a rule, active = well fitted curve in the direction sought with a large enough effect; inconclusive = small, poorly fitted or top-dose-only effect, or another doubt; inactive = no such curve, though single readings can be large; an effect the other way counts as inactive or inconclusive.
SMILES,uPA generation,TDP1 block,miR-21 FLuc,DT40 TDP1 no CPT,DT40 TDP1 CPT
COc1ccc(OC)c(S(=O)(=O)N2CCCC(N3CCN(c4ccccc4)CC3)C2)c1 (configuration not stated),–,–,–,26µM,?
CCN1CCN(S(=O)(=O)c2cc(OC)ccc2OC)CC1,–,–,–,–,–
COc1ccc(OC)c(S(=O)(=O)N2CCN(c3ncccn3)CC2)c1,–,·,–,15µM,?
NS(=O)(=O)c1ccc(N=Nc2c(-c3ccccc3)[nH]n(-c3nc(-c4ccccc4)cs3)c2=O)cc1,–,–,–,3.3µM,9.2µM
O=C(CN1C(=O)CSc2ccc(S(=O)(=O)N3CCOCC3)cc21)NCCc1ccccc1,·,·,·,–,–
Cc1cc(NC(=O)CN2C(=O)CSc3ccc(S(=O)(=O)N(C)C)cc32)ccc1Br,·,–,–,21µM,?
CC(C)c1ccc(NC(=O)CN2C(=O)CSc3ccc(S(=O)(=O)N4CCCC4)cc32)cc1,·,–,–,16µM,16µM
Cc1ccc(NC(=O)CN2C(=O)CSc3ccc(S(=O)(=O)N4CCCC4)cc32)cc1F,·,–,–,23µM,?
O=C(CN1C(=O)CSc2ccc(S(=O)(=O)N3CCCCCC3)cc21)NCCc1ccccc1,–,·,·,23µM,?
Cc1ccc(-c2cnn(-c3cccc(C(F)(F)F)c3)c2N)cc1,·,–,–,–,?
COc1ccc(CCNc2ncnc3c2nnn3Cc2ccccc2)cc1OC,–,·,–,?,23µM
Cc1cc(C)cc(-n2ccnc(NCCc3ccccc3)c2=O)c1,·,–,–,?,?
COc1ccc(CCNc2ncnc3c2[nH]c2cc(OC)c(OC)cc23)cc1OC,–,–,–,6.5µM,4.6µM
Clc1ccc(CCNc2ncnc3c2nnn3Cc2ccccc2)cc1,–,·,–,?,–
COc1ccc(CCNc2nc(=S)[nH]c3cc(OC)c(OC)cc23)cc1OC,–,–,–,?,–
COc1ccc(-n2ccnc(NCCc3ccccc3)c2=O)cc1OC,·,–,–,21µM,?
Cc1ccc(-n2ccnc(NCc3cccs3)c2=O)cc1C,·,–,–,13µM,?
COc1cc2ncnc(NCc3ccc(C)cc3)c2cc1OC,–,–,–,23µM,?
COc1ccc(CCNc2ncnc3c2nnn3C)cc1OC,·,–,–,?,?
COc1cc2ncnc(NCCc3ccccc3)c2cc1OC,?,–,–,9.2µM,13µM
COc1ccccc1CNc1ncnc2cc(Cl)ccc12,·,–,–,?,?
COc1ccc(CNc2ncnc3cc(Cl)ccc23)cc1OC,·,·,–,13µM,?
COc1ccc(CCNc2ncnc3cc(OC)c(OC)cc23)cc1OC,–,–,–,6.5µM,3.7µM
COc1ccc(S(=O)(=O)N2CCN(C(=O)c3cc(C4CC4)nn3-c3ccccc3)CC2)cc1OC,–,–,·,?,?
Cc1cccc(C(=O)N=c2c(C#N)cc3c(=O)n4cccc(C)c4nc3n2Cc2ccco2)c1,–,16µM,–,?,21µM
SMILES,uPA generation,TDP1 block,miR-21 FLuc,DT40 TDP1 no CPT,DT40 TDP1 CPT
Cc1cccn2c(=O)c3cc(C#N)c(=NC(=O)c4ccco4)n(Cc4ccco4)c3nc12,–,·,–,?,–
Cc1cccn2c(=O)c3cc(C#N)c(=NC(=O)c4ccccc4)n(Cc4ccco4)c3nc12,–,·,·,18µM,18µM
Cc1cccc(-c2nc(CCNC(=O)c3ccco3)cs2)c1,·,–,–,?,?
O=C(NNS(=O)(=O)c1ccccc1)C(O)(c1ccccc1)c1ccccc1,–,–,–,–,–
Cc1oc2ccc(O)c(CN(C)Cc3ccccc3)c2c1C(=O)Nc1cccc(Cl)c1C,·,–,–,6.5µM,6.5µM
CCN(Cc1ccccc1)Cc1c(O)ccc2oc(C)c(C(=O)Nc3ccccc3C)c12,·,–,?,13µM,13µM
Cc1c(Cl)cccc1NC(=O)c1ccco1,–,·,–,–,–
Cc1ccccc1NC(=O)c1c(C)oc2ccc(O)c(CN(C)Cc3ccccc3)c12,·,–,–,6.5µM,8.2µM
Cc1oc2ccc(O)c(CN(C)C)c2c1C(=O)c1ccccc1,–,–,–,?,?
CCOC(=O)N/N=C/c1ccc(OCCSc2ccc(Cl)cc2)c(OC)c1,–,–,–,26µM,15µM
O=C(CSCc1ccc(Cl)cc1)N/N=C/c1ccccc1,–,–,–,–,–
COc1cc(C=O)ccc1OCCSc1ccc(Cl)cc1,·,–,–,–,–
COC(=O)Oc1ccc(/C=N/NC(=O)CSCc2ccc(Cl)cc2)cc1OC,–,–,–,12µM,26µM
CCCCCn1nnnc1C1(C)CCC(=O)N1Cc1ccco1 (configuration not stated),·,·,·,–,?
N#Cc1ccccc1Sc1ccccc1C(=O)OCc1nnc(-c2ccccc2)o1,–,–,–,?,?
Cc1noc(C)c1COC(=O)c1ccccc1Sc1ccccc1C#N,–,–,–,?,26µM
CN(C)CCNc1nc2sc3c(c2c(=O)n1-c1ccccc1)CCCCC3,–,·,–,?,–
COc1ccc(-n2c(NCCN(C)C)nc3sc4c(c3c2=O)CCCCC4)cc1,–,–,–,16µM,?
COc1ccc(-n2c(N3CCN(C)CC3)nc3sc4c(c3c2=O)CCCCC4)cc1,–,–,–,15µM,23µM
CN(C)CCNc1nc2sc3c(c2c(=O)n1-c1ccc(F)cc1)CCCCC3,–,–,–,?,21µM
CN(C)CCNc1nc2sc3c(c2c(=O)n1Cc1ccccc1)CCCCC3,–,·,–,?,?
COc1ccc(-n2c(C)nc3sc4c(c3c2=O)CCC4)cc1,–,–,–,?,–
O=C(COC(=O)COc1ccccc1[N+](=O)[O-])Nc1ccccc1Br,–,–,–,–,–
O=C(COC(=O)c1ccc2ccccc2n1)Nc1ccccc1Br,–,–,·,–,–
N#Cc1c(NC(=O)Cn2cnc3ccccc3c2=O)oc(-c2ccccc2)c1-c1ccccc1,–,–,–,–,–
SMILES,uPA generation,TDP1 block,miR-21 FLuc,DT40 TDP1 no CPT,DT40 TDP1 CPT
CCN(c1ccc2c(c1)OCO2)S(=O)(=O)c1cc2c(cc1Br)CCN2C(=O)C1CC1,–,·,·,21µM,16µM
Cc1ccc(NS(=O)(=O)c2ccc(Cl)c(NC(=S)NC(=O)C3CCCCC3)c2)cc1Cl,–,–,–,?,23µM
CCOc1ccc(NS(=O)(=O)c2ccc3c(c2)CCN3C(=O)C2CCC2)cc1,–,–,–,?,?
Cc1ccc(NC(=O)C2CCCC2)cc1Cl,–,·,·,–,–
Cc1ccc(NS(=O)(=O)c2ccc3c(c2)CCCN3C(=O)C2CCC2)cc1Cl,·,–,–,23µM,?
O=C(C1CCC1)N1CCc2cc(S(=O)(=O)Nc3ccc4c(c3)OCO4)ccc21,–,–,–,14µM,11µM
O=C(CCl)c1ccc2c(c1)CCN2C(=O)C1CC1,·,–,–,·,·
O=C(CCl)c1ccc2c(c1)CCN2C(=O)C1CCCCC1,–,–,–,1.6µM,1.3µM
Cc1cc(Cl)ccc1NS(=O)(=O)c1ccc2c(c1)CC(C)N2C(=O)C1CCC1 (configuration not stated),·,–,–,16µM,18µM
